Laboratory results from patent US20200362026A1 (INSTITUTE FOR RESEARCH IN BIOMEDICINE, published 2020).

Chains of the proteins cited; added tags and fusions are not shown. Residues count along the entry.
UniProt P04141, 18-144 limits assumed: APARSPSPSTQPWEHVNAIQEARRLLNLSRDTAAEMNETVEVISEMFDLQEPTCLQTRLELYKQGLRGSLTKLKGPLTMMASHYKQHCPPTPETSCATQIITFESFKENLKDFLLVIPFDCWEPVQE

T1: FcγRIIa (UniProt P12318 34-317, limits assumed)
T1 construct: whole, on cells; also called FcgRIIa; Fcγ receptor IIa
T1 sequence (looked up): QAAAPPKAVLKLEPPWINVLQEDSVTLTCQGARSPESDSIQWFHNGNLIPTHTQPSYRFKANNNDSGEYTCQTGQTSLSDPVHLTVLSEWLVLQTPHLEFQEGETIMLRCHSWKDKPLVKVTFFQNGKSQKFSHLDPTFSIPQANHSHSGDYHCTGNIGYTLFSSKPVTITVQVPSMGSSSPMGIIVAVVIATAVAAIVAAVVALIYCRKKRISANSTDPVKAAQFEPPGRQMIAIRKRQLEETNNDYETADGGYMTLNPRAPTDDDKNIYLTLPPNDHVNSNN

T2: FcγRIIb (UniProt P31994 43-310, limits assumed)
T2 construct: whole, on cells; also called FcgRIIb; Fcγ receptor IIb
T2 sequence (looked up): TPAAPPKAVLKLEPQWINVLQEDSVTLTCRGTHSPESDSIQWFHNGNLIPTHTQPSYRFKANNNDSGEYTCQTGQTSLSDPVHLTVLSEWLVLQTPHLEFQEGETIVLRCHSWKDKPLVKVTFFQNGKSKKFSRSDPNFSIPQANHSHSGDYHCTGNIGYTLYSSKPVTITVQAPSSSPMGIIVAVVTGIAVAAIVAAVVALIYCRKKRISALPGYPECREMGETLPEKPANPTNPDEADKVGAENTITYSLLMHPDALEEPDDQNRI


Assays:
[1] = target: T3, human GM-CSF (granulocyte macrophage-colony stimulating factor) (human, UniProt P04141 18-144); assay: ELISA on GM-CSF
T3 construct: Soluble cytokine used in ELISA, SPR, TF-1 bioassay and immune complex formation; also called recombinant GM-CSF

[2] = target: T3, human GM-CSF (granulocyte …); assay: cell-based or functional assay
[3] = target: T1, FcγRIIa; assay: flow cytometry, TZM-bl cells expressing FcγRIIa, mAb alone (w/o GM-CSF)
Method: (§1) Expression of specific FcγRs was assessed by staining TZM-b1 cells with FITC-conjugated anti-CD64 (anti-FcγRI), anti-CD32 (anti-FcγRIIa and anti-FcγRIIb) and anti-CD16 (anti-FcγRIIIa) antibodies (all from BD Pharmingen). Untrasfected and transfected TZM-b1 cells were washed with staining buffer (PBS with 10% Fetal Bovine Serum and 2 mM EDTA) and seeded in 96-well-plates at a density of 50,000 cells per well. […] The LALA versions of all antibodies and a mAb with a different specificity were included as controls. Samples were incubated at 37° C. for 30 min to allow the formation of immune complexes and then cooled down to 4° C. before adding them to TZM-b1 cells for 30 min. Cells were washed twice and stained with anti-human IgG Fcγ fragment specific F(ab′)2 fragment (Jackson ImmunoResearch). Samples were analyzed on BD FACSCanto (BD Biosciences) and median intensity fluorescence was analyzed and compared between samples.
(§2) To address the engagement of Fcγ receptors, immune complexes formed between GM-CSF and multispecific antibodies were tested for their capacity to bind to TZM-b1 cells expressing FcγRIIa and FcγRIIb receptors. Multispecific antibodies were mixed with 0.05 μg/ml of GM-CSF, or staining buffer. […] Samples were analyzed on BD FACSCanto (BD Biosciences) and median intensity fluorescence was analyzed and compared between samples.

[4] = target: T2, FcγRIIb; assay: flow cytometry, TZM-bl cells expressing FcγRIIb, mAb alone (w/o GM-CSF)
Method: as §1, §2

[5] = target: T1, FcγRIIa; assay: flow cytometry, TZM-bl cells expressing FcγRIIa, immune complex with low GM-CSF
Method: as §1, §2

[6] = target: T2, FcγRIIb; assay: flow cytometry, TZM-bl cells expressing FcγRIIb, immune complex with low GM-CSF
Method: as §1, §2

[7] = target: T1, FcγRIIa; assay: flow cytometry, TZM-bl cells expressing FcγRIIa, immune complex with high GM-CSF
Method: (§3) To address the engagement of Fcγ receptors, immune complexes formed between GM-CSF and multispecific antibodies were tested for their capacity to bind to TZM-b1 cells expressing FcγRIIa and FcγRIIb receptors. Multispecific antibodies were mixed with 0.05 μg/ml of GM-CSF, or staining buffer. Samples were incubated at 37° C. for 30 min to allow the formation of immune complexes and then cooled down to 4° C. before adding them to TZM-b1 cells for 30 minutes. Cells were washed twice and stained with anti-human IgG Fcγ fragment specific F(ab′)2 fragment. Samples were analyzed on BD FACSCanto (BD Biosciences) and median intensity fluorescence was analyzed and compared between samples.

[8] = target: T2, FcγRIIb; assay: flow cytometry, TZM-bl cells expressing FcγRIIb, immune complex with high GM-CSF
Method: as §1, §2

[9] = target: T1, FcγRIIa; assay: flow cytometry, TZM-bl FcγRIIa cells; average ratio of binding in presence and in absence of GM-CSF
Method: as §3

[10] = target: T2, FcγRIIb; assay: flow cytometry, TZM-bl FcγRIIb cells; average ratio of binding in presence and in absence of GM-CSF
Method: as §1, §2

[11] = target: T3, human GM-CSF (granulocyte …); assay: cell-based or functional assay; remark: listed apart in the source
[12] = target: T3, human GM-CSF (granulocyte …); assay: ELISA on human GM-CSF
Method: All antibodies were recombinantly produced as IgG1 by transient transfection of HEK 293 Freestyle Cells (Invitrogen) using polyethylenimine (PEI). The antibodies were then tested for binding to human GM-CSF by ELISA. […] The EC50 values (ng/ml) were determined by ELISA and calculated for every sample by nonlinear regression analysis using GraphPad Prism 5 software.

[13] = target: T3, human GM-CSF (granulocyte …); assay: SPR (ProteOn), mAb captured on protein A, GM-CSF as analyte, Langmuir fit
Method: The kinetics of binding was determined by surface plasmon resonance (SPR). […] HEPES buffered saline (HBS) (10 mM HEPES, pH 7.4, 150 mM NaCl, 3 mM EDTA, 0.005% surfactant Tween-20) was used as running buffer. All injections were made at flow rate of 100 µl/min. […] Injection time and dissociation time were 120 s and 600 s, respectively. Each binding interaction of mAbs with GM-CSF was assessed using a ProteON XPR36 instrument (Biorad) and data processed with ProteOn Manager Software. Ka, Kd and KD were calculated applying the Langmuir fit model.

Row | EC50 [1] | IC90 less stringent conditions (50 pg/ml GM-CSF, 1,000 TF-1/well) [2] | IC90 more stringent conditions (500 pg/ml GM-CSF, 1,000 TF-1/well) [2] | IC90 stringent conditions (50 pg/ml GM-CSF, 10,000 TF-1/well) [2] | IC90 very stringent conditions (500 pg/ml GM-CSF, 10,000 TF-1/well) [2] | MFI [3] | MFI [4] | MFI [5] | MFI [6] | MFI [7] | MFI [8] | Average RATIO FcgRIIa [9] | Average RATIO FcgRIIb [10] | fold greater concentration than Ts1GC2a, less stringent conditions [11] | EC50 [12] | Kd [13] | koff [13] | kon [13] | Binder
1 | 18.4 ng/mL | 0.526 ng/mL | 4.71 ng/mL | 0.561 ng/mL | 5.95 ng/mL | 11300 MFI | 168000 MFI | 136000 MFI | 852000 MFI | 726000 MFI | 1.26e+06 MFI | 38 ratio | 6.29 ratio | – | – | – | – | – | Ts2GC2b trispecific antibody (antibody, human IgG1, kappa) heavy: not shown light: GVQLVQSGGGLVQPGGSLRLSCAASGFTVSTNYMSWVRQAPGKGLEWVSILYAGGVTRYADSVKTRFTISRDNSKNTLFLQMNALSAEDTAIYYCAKHYDSGYSTIDHFDSWGQGTLVTVSSGGGGSGGGGSGGGGSDIQMTQSPDSVAVSLGERATINCKSSQSVFYTSKNKNYLAWFQQKPGQPPKLLIYWASTRESGVPDRFSGSGSGTDFTLTISSLRPEDVAVYYCQQYYSTPFTFGPGTKVDIKGGGGSEIVLTQSPGTLSLSPGETAILSCRASQSVSSSLLAWYQQKPGQAPRLLIYGASNRATGIRGRFSGSGSGTDFTLTISRLEPEDFVLYYCQHYGSRVTFGQGTKLEIKRTVAAPSVFIFPPSDEQLKSGTASVVCLLNNFYPREAKVQWKVDNALQSGNSQESVTEQDSKDSTYSLSSTLTLSKADYEKHKVYACEVTHQGLSSPVTKSFNRGEC
2 | 12 ng/mL | 0.853 ng/mL | 4.5 ng/mL | 1.24 ng/mL | 6.23 ng/mL | 1590 MFI | 108000 MFI | 5000 MFI | 416000 MFI | 427000 MFI | 943000 MFI | 136 ratio | 6.3 ratio | – | – | – | – | – | Bs2GC1c bispecific antibody (bispecific antibody, human IgG1, kappa) heavy: not shown light: GVQLVQSGGGLVQPGGSLRLSCAASGFTVSTNYMSWVRQAPGKGLEWVSILYAGGVTRYADSVKTRFTISRDNSKNTLFLQMNALSAEDTAIYYCAKHYDSGYSTIDHFDSWGQGTLVTVSSGGGGSGGGGSGGGGSDIQMTQSPDSVAVSLGERATINCKSSQSVFYTSKNKNYLAWFQQKPGQPPKLLIYWASTRESGVPDRFSGSGSGTDFTLTISSLRPEDVAVYYCQQYYSTPFTFGPGTKVDIKGGGGSEIVLTQSPGTLSLSPGETAILSCRASQSVSSSLLAWYQQKPGQAPRLLIYGASNRATGIRGRFSGSGSGTDFTLTISRLEPEDFVLYYCQHYGSRVTFGQGTKLEIKRTVAAPSVFIFPPSDEQLKSGTASVVCLLNNFYPREAKVQWKVDNALQSGNSQESVTEQDSKDSTYSLSSTLTLSKADYEKHKVYACEVTHQGLSSPVTKSFNRGEC
3 | – | 24.9 ng/mL | 172 ng/mL | 139 ng/mL | 1490 ng/mL | – | – | – | – | – | – | – | – | 100 fold | 90 ng/mL | 0.19 nM | 5.1e-05 s⁻¹ | 270000 M⁻¹ s⁻¹ | MOR103 (antibody, V domains shown) VH: QVQLVESGGGLVQPGGSLRLSCAASGFTFSSYWMNWVRQAPGKGLEWVSGIENKYAGGATYYAASVKGRFTISRDNSKNTLYLQMNSLRAEDTAVYYCARGFGTDFWGQGTLVTVSS VL: DIELTQPPSVSVAPGQTARISCSGDSIGKKYAYWYQQKPGQAPVLVIYKKRPSGIPERFSGSNSGNTATLTISGTQAEDEADYYCSAWGDKGMVFGGGTKLTVL
